Measured values from PMC6204821, “Inhibitory effect of microalgae and cyanobacteria extracts on influenza virus replication and neuraminidase activity” (PeerJ, 2018).

Assays:
Format in all cases: biochemical
[1] = target: neuraminidase of B/Perth/211/2001 Yam (WT) (Influenza B virus, UniProt Q3S340); conditions: read-out: IC50 NA B/Perth/211/2001 Yam (WT)
[2] = target: neuraminidase of A(H1N1)pdm09-WT (Influenza A virus, UniProt C3W5S3); conditions: read-out: IC50 NA A(H1N1)pdm09-WT
[3] = target: neuraminidase of B/Brisbane/60/2008 Vic (WT) (Influenza B virus, UniProt C0LT34); conditions: read-out: IC50 NA B/Brisbane/60/2008 Vic (WT)

In the case of `CCC(CC)O[C@@H]1C=C(C(=O)O)C[C@H](N)[C@H]1NC(C)=O` [OST-car, Oseltamivir carboxylate], the IC50 [1] is reported as 5 ± 1 nM, the IC50 [2] is reported as 0.1 ± 0.2 nM and the IC50 [3] is reported as 3 ± 0.5 nM.
